{"source": "paper PMC7693064", "about": "(American Journal of Hematology, 2020)", "key": {"subjects with PNH": {"tested_on": "subjects with PNH", "assay": "Hemolytic markers", "assay_type": "in vivo, human", "details": "eculizumab treatment before pegcetacoplan"}, "patients with PNH": {"tested_on": "patients with PNH", "details": "141 patients with PNH, eculizumab for ≥13 months; cited from earlier work"}, "PNH RBCs": {"tested_on": "PNH RBCs", "details": "patients with PNH treated with eculizumab; cited from earlier work"}}, "data": [{"substance": "eculizumab: anti‐C5 humanized monoclonal antibody", "values": [{"measurement": "Lactate dehydrogenase levels at baseline", "setting": "subjects with PNH", "value": "well controlled"}, {"measurement": "Patients who remained anemic", "setting": "patients with PNH", "value": 72, "unit": "%"}, {"measurement": "Patients who required ≥1 transfusion per year", "setting": "patients with PNH", "value": 36, "unit": "%"}, {"measurement": "Percentage of C3 fragment-positive PNH RBCs, median", "setting": "PNH RBCs", "value": 22.6, "unit": "%"}]}]}
